US9617258B2, “Pyrrolo[2,3-d]pyrimidinyl, pyrrolo[2,3-b]pyrazinyl and pyrrolo[2,3-d]pyridinyl acrylamides” (Pfizer Inc., priority 2013, dated 2017)

The chains behind the UniProt entries cited, without tags or fusion partners.
UniProt P52333, whole entry, species assumed: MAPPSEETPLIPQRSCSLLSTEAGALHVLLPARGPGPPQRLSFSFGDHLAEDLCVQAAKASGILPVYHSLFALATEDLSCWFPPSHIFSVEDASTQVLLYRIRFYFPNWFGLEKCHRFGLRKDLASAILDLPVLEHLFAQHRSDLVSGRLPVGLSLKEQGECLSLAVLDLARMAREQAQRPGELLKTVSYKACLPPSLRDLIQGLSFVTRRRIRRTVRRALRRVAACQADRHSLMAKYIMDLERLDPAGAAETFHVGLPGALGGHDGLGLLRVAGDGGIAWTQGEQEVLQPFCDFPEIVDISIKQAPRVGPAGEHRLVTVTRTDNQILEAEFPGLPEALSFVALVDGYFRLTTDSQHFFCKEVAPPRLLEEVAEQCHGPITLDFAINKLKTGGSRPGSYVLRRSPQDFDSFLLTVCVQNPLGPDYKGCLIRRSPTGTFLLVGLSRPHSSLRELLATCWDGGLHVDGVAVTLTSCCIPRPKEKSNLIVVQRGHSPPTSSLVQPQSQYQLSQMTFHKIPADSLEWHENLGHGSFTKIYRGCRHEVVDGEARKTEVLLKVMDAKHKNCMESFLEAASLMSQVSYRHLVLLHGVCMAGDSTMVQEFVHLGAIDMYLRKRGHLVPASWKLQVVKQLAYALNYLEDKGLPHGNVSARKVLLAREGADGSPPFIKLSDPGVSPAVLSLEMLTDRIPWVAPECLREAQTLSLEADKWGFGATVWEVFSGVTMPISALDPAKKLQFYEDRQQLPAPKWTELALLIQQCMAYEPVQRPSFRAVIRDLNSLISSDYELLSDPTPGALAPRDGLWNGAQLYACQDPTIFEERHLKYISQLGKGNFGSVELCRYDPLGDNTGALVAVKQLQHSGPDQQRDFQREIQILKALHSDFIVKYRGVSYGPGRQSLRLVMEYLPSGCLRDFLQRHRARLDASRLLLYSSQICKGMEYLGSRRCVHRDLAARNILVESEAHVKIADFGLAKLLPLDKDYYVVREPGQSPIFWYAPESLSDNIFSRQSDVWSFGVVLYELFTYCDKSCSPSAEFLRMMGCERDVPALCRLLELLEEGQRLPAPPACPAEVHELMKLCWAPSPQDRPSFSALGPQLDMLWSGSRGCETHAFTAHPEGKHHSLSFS

Biological target: JAK3 enzyme (Homo sapiens (Human), UniProt P52333)
Assay: JAK Caliper enzyme assay at 1 mM ATP
Assay type: biochemical
Settings: read-out: JAK3 (1 mM ATP) IC50
Protocol: JAK Caliper Enzyme Assay at 4 μM or 1 mM ATP
Test article was solubilized in dimethyl sulfoxide (DMSO) to a stock concentration of 30 mM. An 11-point half log dilution series was created in DMSO with a top concentration of 600 μM. […] The compound plates were diluted 1 to 60 resulting in a top final assay compound concentration of 10 μM and a 2% DMSO concentration.
Test article and assay controls were added to a 384-well plate. Reaction mixtures contained 20 mM HEPES, pH 7.4, 10 mM magnesium chloride, 0.01% bovine serum albumin (BSA), 0.0005% Tween 20, 4 μM or 1 mM ATP and 1 μM peptide substrate. […] The assays were initiated by the addition 1 nM JAK3 enzyme and were incubated at room temperature 75 minutes for JAK3. Enzyme concentrations and incubation times were optimized for each new enzyme preps and were modified slightly over time to ensure 20%-30% phosphorylation. The assays were stopped with a final concentration of 10 mM EDTA, 0.1% Coating Reagent and 100 mM HEPES, pH=7.4. The assay plates were placed on a Caliper Life Science Lab Chip 3000 (LC3000) instrument, and each well was sampled using appropriate separation conditions to measure the unphosphorylated and phosphorylated peptide.

C=CC(=O)N[C@H]1CCN(c2cnc3[nH]cc(C(=O)NC(C)C)c3n2)C1 [Example 194, 2-[(3S)-3-(acryloylamino)pyrrolidin-1-yl]-N-(propan-2-yl)-5H-pyrrolo[2,3-b]pyrazine-7-carboxamide]
IC50: 1660 nM
